## Antibody variant affinities, Ab-95 light chain, assay 2

Values reported by Engelhart et al. 2022, doi:10.1038/s41597-022-01779-4 (FLAb copy).

The target is the same throughout: PDVDLGDISGINAS, from the HR2 region of SARS-CoV-2 spike.

The variants keep the heavy chain, the linker and the frameworks of Ab-95 (scFv order VH, the linker GGGGSGGGGSGGGGS, VL).
VH: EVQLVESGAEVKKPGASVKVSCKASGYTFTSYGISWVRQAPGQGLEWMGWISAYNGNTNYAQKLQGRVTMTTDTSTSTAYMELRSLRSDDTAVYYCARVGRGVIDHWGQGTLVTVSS
VL: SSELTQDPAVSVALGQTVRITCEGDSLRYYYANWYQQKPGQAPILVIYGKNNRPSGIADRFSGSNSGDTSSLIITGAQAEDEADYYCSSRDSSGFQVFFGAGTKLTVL

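Phage display of a naive human antibody library on the peptide gave the parent. AAYL52 was designed without a model: most single CDR substitutions and a random sample of double and triple ones. In AlphaSeq, yeast of one mating type display the scFv and yeast of the other type display the target. Mating (16 h, 30 °C) was followed by selection of diploids and sequencing of their barcodes. Scores were corrected for input abundance and mapped to Kd with protein pairs of known affinity run in the same pool. Each pool was mated in three replicate cultures.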

Positions count from residue 1 of the parent VL; N51L puts L in place of N.
All variants listed here change N51 of the VL, counted from its first residue.
Numbers give log10(Kd / nM), so 0 is 1 nM and 3 is 1 µM. Smaller is tighter.
"ND" means that the variant was in the library but no mating with the target was seen in that replicate; the authors take this as a sign of poor binding, and no number exists.
As a blank, each scFv also met three strains without target: over library AAYL52, 28% of these pairings were detected, typically at 3.91 and seldom below 2.90.

changes	replicates, log10 nM
N51L+D91Q+F98W	4.28 3.87 ND
R28H+N51I+Q96V	ND 5.12 ND
N51K+G94A	3.59 3.71 2.87
Y31P+N51K+S55K	2.70 3.36 2.88
N51I+F95S+Q96Y	3.78 4.40 ND
Y29V+N51A	1.66 1.60 1.48
N51D+P54D+D91T	ND 4.31 ND
S26A+N33M+N51G	2.37 1.96 1.90
E23S+N51A+G94Q	3.47 3.62 3.29
N51I+R53A+S89L	5.16 4.14 ND
N51S+S88F	2.65 3.05 2.28
R28F+A32Y+N51Q	ND ND ND
Y30W+N51P+N52V	ND 3.15 ND
E23Y+Y30N+N51D	0.95 0.88 0.12
K50V+N51Y	5.26 3.56 ND
E23D+R28G+N51M	ND 5.44 4.16
N51H+R53F+D91F	4.87 ND ND
G24C+N51I+S89I	3.98 ND ND
Y30T+N51Y+S55I	2.62 ND 4.16
N33Y+N51D+S55V	ND 4.99 ND
L27H+N51S+S92H	3.18 3.13 ND
S26Y+N51D+S93I	4.14 ND 2.59
N33V+N51Y+S92N	ND ND ND
N51S+S89Q+G94E	3.25 2.98 4.01
Y29L+N33K+N51Q	ND ND ND
G24M+N51V+G94W	3.50 ND ND
K50L+N51M+R90W	ND ND ND
Y31N+N51I+R53I	4.11 3.28 3.17
N51H+S92H+Q96P	4.83 3.85 2.94
D25H+R28V+N51T	2.25 2.11 1.33
N33A+N51I+R53E	3.88 5.28 ND
R28W+K50F+N51V	ND ND ND
D25K+N51D+S88W	ND ND ND
K50G+N51T+V97W	3.04 2.90 3.91
K50N+N51P+S92V	3.48 ND 4.30
L27N+N51W+N52E	ND ND ND
N51P+S88V	4.13 5.52 ND
N51K+S88F+F95R	ND 3.71 4.33
K50R+N51W+F95T	ND 2.72 4.25
Y29A+N51D+R53Y	ND ND ND
N51D+R90W	3.80 3.02 ND
N51S+S55K+S92W	3.99 3.48 4.06
K50C+N51V+R90A	5.41 3.27 3.86
G49N+N51W	ND 4.15 ND
G24P+N51M+R90G	ND ND 4.48
E23R+Y31K+N51F	2.89 2.37 2.56
R28V+N51Y+D91Y	3.31 ND 4.03
N51C+S55F+S92P	ND ND 3.74
G24Y+N51P+S92I	3.87 ND ND
G24V+Y31M+N51W	4.18 3.51 4.35
D25Y+L27I+N51P	4.70 ND ND

Excerpt, the final 6 entries:

changes	replicates, log10 nM
E23R+Y31K+N51F	2.89 2.37 2.56
R28V+N51Y+D91Y	3.31 ND 4.03
N51C+S55F+S92P	ND ND 3.74
G24Y+N51P+S92I	3.87 ND ND
G24V+Y31M+N51W	4.18 3.51 4.35
D25Y+L27I+N51P	4.70 ND ND

Parent in this assay: reference entry 2.31, copy in this library 2.25.